From PubChem BioAssay (NCATS) come the findings set out here.

Amino acid sequences for entries named in this document (tags omitted).
UniProt P07203, whole entry: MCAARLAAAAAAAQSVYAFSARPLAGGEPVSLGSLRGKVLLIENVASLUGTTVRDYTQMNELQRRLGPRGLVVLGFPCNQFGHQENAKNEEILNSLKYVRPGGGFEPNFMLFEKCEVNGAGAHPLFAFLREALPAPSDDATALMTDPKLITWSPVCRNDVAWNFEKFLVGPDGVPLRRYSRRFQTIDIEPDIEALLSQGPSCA
UniProt P36969, whole entry: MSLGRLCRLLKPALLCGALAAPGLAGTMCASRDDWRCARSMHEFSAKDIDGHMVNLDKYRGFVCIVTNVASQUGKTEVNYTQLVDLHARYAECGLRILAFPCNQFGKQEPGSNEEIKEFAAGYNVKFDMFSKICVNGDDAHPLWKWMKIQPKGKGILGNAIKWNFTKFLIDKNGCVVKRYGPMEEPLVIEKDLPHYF
UniProt Q8WZA2, whole entry: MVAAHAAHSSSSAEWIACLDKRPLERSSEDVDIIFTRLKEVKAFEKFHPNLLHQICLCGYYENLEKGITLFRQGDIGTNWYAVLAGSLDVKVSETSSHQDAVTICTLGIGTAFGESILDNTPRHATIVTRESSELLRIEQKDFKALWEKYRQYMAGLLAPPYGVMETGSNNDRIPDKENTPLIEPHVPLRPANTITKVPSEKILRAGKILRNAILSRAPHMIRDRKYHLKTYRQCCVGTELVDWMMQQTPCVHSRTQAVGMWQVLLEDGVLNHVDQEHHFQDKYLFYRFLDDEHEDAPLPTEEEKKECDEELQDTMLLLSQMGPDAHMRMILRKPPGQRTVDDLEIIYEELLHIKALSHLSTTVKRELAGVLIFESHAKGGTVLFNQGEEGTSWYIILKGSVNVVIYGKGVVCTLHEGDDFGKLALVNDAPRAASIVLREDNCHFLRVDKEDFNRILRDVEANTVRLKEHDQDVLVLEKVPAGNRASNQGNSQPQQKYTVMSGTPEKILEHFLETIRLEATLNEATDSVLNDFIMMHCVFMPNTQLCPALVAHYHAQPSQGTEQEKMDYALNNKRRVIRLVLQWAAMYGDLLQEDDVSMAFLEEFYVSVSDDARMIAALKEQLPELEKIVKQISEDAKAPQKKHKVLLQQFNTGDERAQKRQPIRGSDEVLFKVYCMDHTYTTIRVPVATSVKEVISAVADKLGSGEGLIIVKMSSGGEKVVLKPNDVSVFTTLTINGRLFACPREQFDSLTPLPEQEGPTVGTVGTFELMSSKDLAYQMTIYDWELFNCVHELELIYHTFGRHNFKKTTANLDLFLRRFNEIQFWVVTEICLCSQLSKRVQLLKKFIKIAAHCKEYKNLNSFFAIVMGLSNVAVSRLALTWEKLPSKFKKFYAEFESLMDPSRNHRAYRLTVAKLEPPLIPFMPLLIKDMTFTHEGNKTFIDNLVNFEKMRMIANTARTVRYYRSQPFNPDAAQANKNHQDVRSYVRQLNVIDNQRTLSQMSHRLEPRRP

The structures appear in SMILES notation. Only a part is listed here, and it is no random draw. Inconclusive results are not listed. Some salts and complexes are drawn in separate pieces, as the source files them; their charges need not balance. Activity calls are given as the source filed them. Unless noted, calls follow the shape of the dose curve; as a rule, active = well fitted curve in the direction sought with a large enough effect; inconclusive = small, poorly fitted or top-dose-only effect, or another doubt; inactive = no such curve, though single readings can be large; an effect the other way counts as inactive or inconclusive.

Assay [1] deals with Glutathione peroxidase 1 (Homo sapiens) (UniProt P07203). The assay is described as follows: Primary qHTS Assay for Inhibitors of Recombinant Selenoprotein Glutathione Peroxidase 1 (GPX1) (AID 1845191). Also: % is scaled to controls: 0 for no effect and ±100 for the full control effect; nearly all actives have a fitted effect of over 65% in size. The settings on record: recombinant GPX1, GR-coupled NADPH fluorescence, 15 min; activity, negative = inhibition: at 48.8 µM (top of the series) unless noted. The essentials: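 GR-coupled assay: compounds preincubated 30 min at room temperature with GPX1, then reaction started with CHP; final 10 nM GPX1, 1 mM GSH, 0.5 mM CHP, 0.5 mM NADPH, 100 nM GR, 0.01% BSA, pH 7.5 Tris buffer. NADPH fluorescence (340/450 nm) read at 0 and 15 min.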

Assay [2] concerns the target Phospholipid hydroperoxide glutathione peroxidase GPX4 (Homo sapiens) (UniProt P36969). The assay can be described thus: Primary qHTS Assay for Inhibitors of Recombinant Selenoprotein Glutathione Peroxidase 4 (GPX4) (AID 1845192). Also: nearly all actives have a fitted effect of over 65% in size. As to activity change, negative = inhibition: % is scaled to controls: 0 for no effect and ±100 for the full control effect. The settings on record: recombinant GPX4, GR-coupled NADPH fluorescence, 15 min; activity change, negative = inhibition: at 50 µM (top of the series) unless noted. The essentials: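 GR-coupled assay: recombinant GPX4 preincubated 30 min with compound at room temperature; final 200 nM GPX4, 1 mM GSH, 0.5 mM cumene hydroperoxide, 0.5 mM NADPH, 100 nM GR, 0.01% BSA, pH 7.5 Tris. NADPH fluorescence (340/450 nm) read at 0 and 15 min.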
(In general: Quantitative high-throughput screening tests each substance at several concentrations.)

Assay [3] has as its target Guanidinoacetate N-methyltransferase (Homo sapiens) (UniProt Q14353). The assay can be described thus: Confirmatory Screen for Target Class Profiling of Small Molecule Inhibitors of Methyltransferases (AID 1745852; calls by dose curve; also: potency is read from the fitted curve at half-maximal effect). The settings on record: MTase-Glo luminescence, SAH detection, recombinant enzyme.
The target of assay [4] is Luciferin 4-monooxygenase (Photinus pyralis) (UniProt P08659). The assay can be described thus: Primary firefly luciferase (FLuc) qHTS assay for identification of artifact compounds. (AID 1845220).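 Also: plate controls were DMSO vehicle for no effect and no enzyme for full effect; nearly all actives have a fitted effect of over 60% in size.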 The settings on record: purified firefly luciferase, luminescence, 5 min; at 54.1 µM (top of the series) unless noted. The gist of the method: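 D-luciferin and ATP (10 uM each, final) in Tris acetate buffer pH 7.6 were incubated with compounds for 15 min at room temperature. The reaction was started with 10 nM Photinus pyralis luciferase and luminescence read after 5 min. Percent inhibition was fitted to a 4-parameter Hill equation.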

Assay [5] can be described thus: Primary fluorescence-based thiol-reactive (MSTI) qHTS assay for identification of artifact compounds. (AID 1845221). Also: potency is read from the fitted curve at half-maximal effect; nearly all actives have a fitted effect of over 65% in size. The essentials:
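First, 4 uM MSTI in 2% DMSO/PBS pH 7.4 was dispensed; next, compounds were added; then plates sat 1 h at room temperature without light. Finally, emission at 598 nm was recorded.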

Assay [6] addresses Rap guanine nucleotide exchange factor 4 (Homo sapiens) (UniProt Q8WZA2). The assay is described as follows: Confirmatory qHTS for antagonist of cAMP-regulated guanine nucleotide exchange factor 4 (EPAC2) (AID 1645885). Also: nearly all actives have a fitted effect of over 25% in size. The note with it: EPAC2 Rap1B-BODIPY-GDP exchange fluorescence, biochemical; at 114 µM (top of the series).
Assay [7] addresses Rap guanine nucleotide exchange factor 3 (Homo sapiens) (UniProt O95398). The assay can be described thus: Counterscreen qHTS for antagonist of cAMP-regulated guanine nucleotide exchange factor 3 (EPAC1) (AID 1645888).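 Also: fluorescence loss as bound BODIPY-GDP is released from Rap1B; % of control where 0% means no effect.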 The settings on record: Rap1B-BODIPY-GDP nucleotide exchange, fluorescence; at 154 µM (top of the series). The essentials: (§1)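 Rap1B–BODIPY-GDP (250 nM) with 50 uM GDP; compounds pin-transferred to 9.74 nM–152 uM final (activator) or from 7.32 nM upwards (inhibitor). Fluorescence Ex/Em 480/540 nm read at 5 and 30 min, then after adding cAMP or buffer, at room temperature.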

Assay [8] shares this target. The assay can be described thus: Counterscreen qHTS for agonist of cAMP-regulated guanine nucleotide exchange factor 3 (EPAC1) (AID 1645889). Also: % of control where 0% means no effect; nearly all actives have a fitted effect of over 40% in size. The settings on record: EPAC1 Rap1B-BODIPY-GDP exchange, fluorescence; at 154 µM (top of the series). The gist of the method: as §1

Regarding `O=[N+]([O-])c1cccc([N+](=O)[O-])c1`, in assay [1], the activity, negative = inhibition was inactive: -10.8%. The activity change, negative = inhibition in assay [2] was inactive: -17.5%.

As for `CC(C)OP(=O)(F)OC(C)C`, the activity, negative = inhibition in assay [1] was inactive: -3.92%. In addition, the activity change, negative = inhibition in assay [2] is inactive: -4.84%.

With `C/C1=C2N=C(/C=C3N=C(/C(C)=C4\N=C(C(CC(N)=O)C4(C)CCC(=O)NCC(C)OP(=O)([O-])OC4C(CO)OC(n5cnc6cc(C)c(C)cc65)C4O)C4(C)N=C1C(CCC(N)=O)C4(C)CC(N)=O)C(CCC(N)=O)C\3(C)C)C(CCC(N)=O)C/2(C)CC(N)=O.[C-]#N.[Co]` (centres undefined), the Potency was active: 16.7 µM [inhibitor] in assay [3] and active: 2.92 µM in assay [5]. Moreover, the activity, negative = inhibition in assay [1] is inactive: -16% [at 27.7 µM]. For the same compound, the activity change, negative = inhibition was inactive: -7.51% [at 27.8 µM] in assay [2] and inactive: -12.7% [at 25.7 µM] in assay [4].

As to `C/C1=C2/N=C(C(CC(N)=O)C2(C)CCC(=O)NCC(C)OP(=O)([O-])OC2C(CO)OC(n3cnc4cc(C)c(C)cc43)C2O)C2(C)N=C(/C(C)=C3N=C(/C=C4N=C1C(CCC(N)=O)C\4(C)C)C(CCC(N)=O)C/3(C)CC(N)=O)C(CCC(N)=O)C2(C)CC(N)=O.[C-]#N.[Co]` (centres undefined), in assay [1], the activity, negative = inhibition was inactive: -15.6%. The outcome in assay [2] was inactive.

Take `O=[N+]([O-])c1cc([N+](=O)[O-])c(C(F)(F)F)c([N+](=O)[O-])c1O`: the outcome in assay [6] was inactive. The activity change, negative = inhibition in assay [7] was inactive: 3.6%. In assay [8], the activation is inactive: 13%.
